Tests used:
[1] = target: 5-HT7 receptor (Homo sapiens, UniProt P34969); conditions: 10 μM test ligand, [3H]LSD, recombinant receptor from HEK-293 cells
[2] = target: 5-HT2B receptor (Homo sapiens, UniProt P41595); conditions: 10 μM test ligand, [3H]mesulergine, recombinant receptor from CHO cells
[3] = target: dopamine transporter (DAT) (Homo sapiens, UniProt Q01959); conditions: 10 μM test ligand, [3H]BTCP, recombinant transporter from CHO cells
[4] = target: norepinephrine transporter (NET) (Homo sapiens, UniProt P23975); conditions: 10 μM test ligand, [3H]nisoxetine, recombinant transporter from CHO cells
[5] = target: T1, 5-HT1A receptor (Homo sapiens, UniProt P08908)
[6] = target: 5-HT2C receptor (Homo sapiens, UniProt P28335); conditions: 10 μM test ligand, [125I](±)DOI, recombinant receptor from HEK-293 cells
[7] = target: T1, 5-HT1A receptor; conditions: 10 μM test ligand, [3H]8-OH-DPAT, recombinant receptor from HEK-293 cells
[8] = target: MT1 receptor (Homo sapiens, UniProt P48039); conditions: 10 μM test ligand, [125I]2-iodomelatonin, recombinant receptor from CHO cells
[9] = target: serotonin transporter (SERT) (Homo sapiens, UniProt P31645); conditions: 10 µM
[10] = target: alpha2A receptor (Homo sapiens, UniProt P08913); conditions: 10 μM test ligand, [3H]RX 821002, recombinant receptor from CHO cells

Amino acid sequences for entries named in this document (tags omitted). Residues count along the entry.
UniProt P34969, whole entry: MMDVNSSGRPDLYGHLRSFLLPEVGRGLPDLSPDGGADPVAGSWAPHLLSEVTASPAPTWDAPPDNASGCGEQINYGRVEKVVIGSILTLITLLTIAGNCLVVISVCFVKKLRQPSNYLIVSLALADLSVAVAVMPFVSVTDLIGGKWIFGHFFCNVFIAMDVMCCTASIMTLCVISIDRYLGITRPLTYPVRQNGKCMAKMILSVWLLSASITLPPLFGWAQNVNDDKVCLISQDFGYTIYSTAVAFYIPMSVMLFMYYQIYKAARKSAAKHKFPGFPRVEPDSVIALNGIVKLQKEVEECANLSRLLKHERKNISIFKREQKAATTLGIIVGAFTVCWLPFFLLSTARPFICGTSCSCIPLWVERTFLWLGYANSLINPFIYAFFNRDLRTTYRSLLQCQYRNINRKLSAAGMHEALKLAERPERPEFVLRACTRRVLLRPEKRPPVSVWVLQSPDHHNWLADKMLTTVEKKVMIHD
UniProt P41595, whole entry: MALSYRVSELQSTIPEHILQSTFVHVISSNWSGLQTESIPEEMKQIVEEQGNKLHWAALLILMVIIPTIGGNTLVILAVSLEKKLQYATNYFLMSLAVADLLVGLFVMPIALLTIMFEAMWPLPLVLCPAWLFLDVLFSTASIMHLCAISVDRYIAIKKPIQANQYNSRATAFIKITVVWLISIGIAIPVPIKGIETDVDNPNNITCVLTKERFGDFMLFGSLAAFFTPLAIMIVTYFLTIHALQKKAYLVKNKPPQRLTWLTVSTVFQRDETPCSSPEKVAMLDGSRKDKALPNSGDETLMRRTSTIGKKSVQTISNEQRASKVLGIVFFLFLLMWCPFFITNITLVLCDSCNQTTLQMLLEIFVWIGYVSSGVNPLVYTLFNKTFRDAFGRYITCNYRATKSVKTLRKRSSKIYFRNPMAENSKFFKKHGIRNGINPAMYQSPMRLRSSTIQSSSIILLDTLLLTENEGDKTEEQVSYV
UniProt Q01959, whole entry: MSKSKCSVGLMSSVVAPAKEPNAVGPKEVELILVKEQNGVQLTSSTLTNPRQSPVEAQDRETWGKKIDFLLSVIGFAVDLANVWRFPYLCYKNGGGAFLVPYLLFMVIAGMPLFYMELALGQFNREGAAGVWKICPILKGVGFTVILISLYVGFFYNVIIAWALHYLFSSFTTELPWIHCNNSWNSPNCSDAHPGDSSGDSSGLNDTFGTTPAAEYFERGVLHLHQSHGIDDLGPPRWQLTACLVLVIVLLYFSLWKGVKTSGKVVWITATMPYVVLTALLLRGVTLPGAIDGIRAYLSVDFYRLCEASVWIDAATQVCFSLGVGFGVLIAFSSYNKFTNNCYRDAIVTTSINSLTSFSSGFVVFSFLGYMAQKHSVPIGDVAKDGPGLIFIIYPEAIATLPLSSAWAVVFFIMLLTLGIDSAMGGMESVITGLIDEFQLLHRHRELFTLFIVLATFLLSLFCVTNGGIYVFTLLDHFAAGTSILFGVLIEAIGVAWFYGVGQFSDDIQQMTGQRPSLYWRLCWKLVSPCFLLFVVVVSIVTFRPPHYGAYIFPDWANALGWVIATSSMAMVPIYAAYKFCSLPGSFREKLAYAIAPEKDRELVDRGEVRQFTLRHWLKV
UniProt P23975, whole entry: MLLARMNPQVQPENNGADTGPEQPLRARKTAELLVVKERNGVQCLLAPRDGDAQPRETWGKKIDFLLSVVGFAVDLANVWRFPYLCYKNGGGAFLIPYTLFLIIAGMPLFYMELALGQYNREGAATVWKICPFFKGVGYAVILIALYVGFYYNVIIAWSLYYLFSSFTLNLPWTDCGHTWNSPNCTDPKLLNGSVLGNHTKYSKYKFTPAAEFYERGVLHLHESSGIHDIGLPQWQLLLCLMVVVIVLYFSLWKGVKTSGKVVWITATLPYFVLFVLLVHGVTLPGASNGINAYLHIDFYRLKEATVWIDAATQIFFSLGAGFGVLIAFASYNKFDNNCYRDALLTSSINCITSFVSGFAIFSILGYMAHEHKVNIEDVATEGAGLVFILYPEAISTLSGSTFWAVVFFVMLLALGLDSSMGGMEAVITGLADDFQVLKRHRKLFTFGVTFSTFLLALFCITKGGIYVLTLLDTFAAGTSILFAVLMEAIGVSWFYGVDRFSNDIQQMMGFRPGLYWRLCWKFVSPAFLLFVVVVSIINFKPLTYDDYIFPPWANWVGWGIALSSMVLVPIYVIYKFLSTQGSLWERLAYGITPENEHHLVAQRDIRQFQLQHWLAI
UniProt P08908, whole entry: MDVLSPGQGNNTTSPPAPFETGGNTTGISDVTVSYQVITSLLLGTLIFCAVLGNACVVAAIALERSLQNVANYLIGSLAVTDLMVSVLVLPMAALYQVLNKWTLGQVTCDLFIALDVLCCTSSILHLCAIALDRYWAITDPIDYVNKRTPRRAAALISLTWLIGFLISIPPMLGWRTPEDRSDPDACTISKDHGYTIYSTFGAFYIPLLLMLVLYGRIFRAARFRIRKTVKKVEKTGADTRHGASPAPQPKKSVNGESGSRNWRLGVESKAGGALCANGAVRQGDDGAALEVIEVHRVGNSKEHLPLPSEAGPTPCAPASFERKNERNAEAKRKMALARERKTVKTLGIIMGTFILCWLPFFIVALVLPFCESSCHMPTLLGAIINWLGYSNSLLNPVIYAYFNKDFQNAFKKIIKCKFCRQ
UniProt P28335, 33-458 limits assumed: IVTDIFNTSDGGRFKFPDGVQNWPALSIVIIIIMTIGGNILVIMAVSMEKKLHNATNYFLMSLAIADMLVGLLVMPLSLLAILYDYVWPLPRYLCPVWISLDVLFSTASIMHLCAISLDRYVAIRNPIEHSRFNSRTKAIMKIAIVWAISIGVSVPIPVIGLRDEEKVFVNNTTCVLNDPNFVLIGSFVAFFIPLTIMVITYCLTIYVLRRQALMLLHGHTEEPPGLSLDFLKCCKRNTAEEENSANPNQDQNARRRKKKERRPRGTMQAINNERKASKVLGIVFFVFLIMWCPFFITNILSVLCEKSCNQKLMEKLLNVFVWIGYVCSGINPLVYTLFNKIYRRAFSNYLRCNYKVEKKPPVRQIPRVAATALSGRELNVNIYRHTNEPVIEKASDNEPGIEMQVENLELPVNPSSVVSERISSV
UniProt P48039, whole entry: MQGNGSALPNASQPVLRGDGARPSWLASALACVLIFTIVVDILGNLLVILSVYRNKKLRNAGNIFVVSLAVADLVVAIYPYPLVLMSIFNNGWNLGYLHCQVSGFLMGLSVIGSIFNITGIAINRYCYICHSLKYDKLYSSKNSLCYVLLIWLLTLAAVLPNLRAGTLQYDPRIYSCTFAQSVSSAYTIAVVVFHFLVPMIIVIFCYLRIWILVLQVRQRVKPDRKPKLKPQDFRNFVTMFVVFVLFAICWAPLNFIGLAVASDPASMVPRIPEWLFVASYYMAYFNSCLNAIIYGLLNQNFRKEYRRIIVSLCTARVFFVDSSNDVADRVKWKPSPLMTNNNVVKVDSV
UniProt P31645, whole entry: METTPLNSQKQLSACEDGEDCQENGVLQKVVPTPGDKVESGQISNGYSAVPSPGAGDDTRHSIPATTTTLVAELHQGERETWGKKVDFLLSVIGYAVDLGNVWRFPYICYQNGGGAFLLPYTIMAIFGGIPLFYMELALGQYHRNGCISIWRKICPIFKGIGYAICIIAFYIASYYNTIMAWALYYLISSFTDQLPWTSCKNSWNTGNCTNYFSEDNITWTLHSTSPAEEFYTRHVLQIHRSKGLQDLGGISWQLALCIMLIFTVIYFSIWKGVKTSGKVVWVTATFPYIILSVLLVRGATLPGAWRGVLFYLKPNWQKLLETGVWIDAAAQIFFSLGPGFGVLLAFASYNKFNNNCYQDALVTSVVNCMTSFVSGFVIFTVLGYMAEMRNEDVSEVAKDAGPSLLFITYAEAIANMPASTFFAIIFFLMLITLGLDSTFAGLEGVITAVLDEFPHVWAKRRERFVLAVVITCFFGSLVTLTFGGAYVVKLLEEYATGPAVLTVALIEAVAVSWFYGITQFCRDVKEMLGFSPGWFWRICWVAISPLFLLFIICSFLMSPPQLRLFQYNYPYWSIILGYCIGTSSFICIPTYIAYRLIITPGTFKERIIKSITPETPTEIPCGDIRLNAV
UniProt P08913, whole entry: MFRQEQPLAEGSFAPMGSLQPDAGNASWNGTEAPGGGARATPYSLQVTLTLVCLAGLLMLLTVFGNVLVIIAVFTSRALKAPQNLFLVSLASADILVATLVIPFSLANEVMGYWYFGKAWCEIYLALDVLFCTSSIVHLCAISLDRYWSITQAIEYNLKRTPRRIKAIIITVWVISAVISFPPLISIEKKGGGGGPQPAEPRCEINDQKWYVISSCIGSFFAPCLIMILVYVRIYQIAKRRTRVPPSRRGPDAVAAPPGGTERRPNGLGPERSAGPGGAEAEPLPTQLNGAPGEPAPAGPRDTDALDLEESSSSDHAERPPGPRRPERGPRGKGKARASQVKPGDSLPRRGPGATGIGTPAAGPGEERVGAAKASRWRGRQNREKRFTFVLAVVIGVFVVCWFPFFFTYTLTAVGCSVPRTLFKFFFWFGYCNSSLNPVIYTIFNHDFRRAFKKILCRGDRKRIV

Compound | HT7, percent of control-specific binding [1] [%] | HT2B, percent of control-specific binding [2] [%] | DAT, percent of control-specific binding [3] [%] | NET, percent of control-specific binding [4] [%] | Ki [5] [µM] | HT2C, percent of control-specific binding [6] [%] | HT1A, percent of control-specific binding [7] [%] | MT1, percent of control-specific binding [8] [%] | SERT, percent of control-specific binding [9] [%] | α-2A, percent of control-specific binding [10] [%]
C[C@@H]([C@@H](F)c1ccc2c(c1)OCO2)N(C)Cc1ccccc1 (relative stereo) | 57 | 66 | 75 | 28 | 8.1 | 88 | 50 | 12 | 66 | 94
C[C@@H]([C@@H](O)c1ccc2c(c1)OCO2)N1CCCC1 (relative stereo) | 0 | 4 | 32 | 1 | 37 | 15 | 0 | 0 | 10 | 22
C[C@@H]([C@H](O)c1ccc2c(c1)OCO2)N1CCCC1 (relative stereo) | 0 | 0 | 6 | 0 | 480 | 0 | 1 | 10 | 28 | 7

From patent US12195439B1, “C1-substituted isopropylamine fused heterocyclic mescaline derivatives” (Enveric Biosciences Canada Inc., priority 2022, dated 2025)
